Laboratory results: PubChem BioAssay (NCI)
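Cultured in 96-well plates, cells were exposed to test compound for 48 hours across five concentrations. GI50 marks 50% less growth. TGI: total growth inhibition.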

Tests used:
Experiment in all cases: NCI tumour cell line growth inhibition, 48 h
[1] = test system: 786-0 renal
[2] = test system: A498 renal
[3] = test system: A549 NSCLC
[4] = test system: ACHN renal
[5] = test system: CAKI-1 renal
[6] = test system: CCRF-CEM leukemia
[7] = test system: COLO 205 colon
[8] = test system: DU-145 prostate
[9] = test system: EKVX NSCLC
[10] = test system: HCT-116 colon
[11] = test system: HL-60(TB) leukemia
[12] = test system: HOP-62 NSCLC
[13] = test system: HOP-92 NSCLC
[14] = test system: HS 578T breast
[15] = test system: HT29 colon
[16] = test system: IGROV1 ovarian
[17] = test system: K-562 leukemia
[18] = test system: KM12 colon
[19] = test system: LOX IMVI melanoma
[20] = test system: M14 melanoma
[21] = test system: MALME-3M melanoma
[22] = test system: MCF7 breast
[23] = test system: MDA-MB-231 breast
[24] = test system: MDA-MB-435
[25] = test system: MDA-N
[26] = test system: MOLT-4 leukemia
[27] = test system: NCI-H226 lung
[28] = test system: NCI-H322M lung
[29] = test system: NCI-H522 lung
[30] = test system: OVCAR-3 ovarian
[31] = test system: OVCAR-4 ovarian
[32] = test system: OVCAR-5 ovarian
[33] = test system: OVCAR-8 ovarian
[34] = test system: PC-3 prostate
[35] = test system: RPMI-8226 leukemia
[36] = test system: RXF 393 renal
[37] = test system: SF-268 CNS
[38] = test system: SF-295 CNS
[39] = test system: SF-539 CNS
[40] = test system: SK-MEL-2 melanoma
[41] = test system: SK-MEL-28 melanoma
[42] = test system: SK-MEL-5 melanoma
[43] = test system: SK-OV-3 ovarian
[44] = test system: SN12C renal
[45] = test system: SNB-19 CNS
[46] = test system: SNB-75 CNS
[47] = test system: SR leukemia
[48] = test system: SW-620 colon
[49] = test system: T-47D breast
[50] = test system: TK-10 renal
[51] = test system: U251 CNS
[52] = test system: UACC-257 melanoma
[53] = test system: UO-31 renal

In the case of COc1ccc(C(OC[C@H]2O[C@@H](n3cc(C)c(=O)[nH]c3=O)C[C@@H]2O[P@](C)(=S)OC)(c2ccccc2)c2ccc(OC)cc2)cc1, the GI50 [1] was > 100 µM, the TGI [1] was > 100 µM and the GI50 [2] was > 100 µM. For the same molecule, the TGI [2] was > 100 µM, the GI50 [3] was 4.95 µM and the TGI [3] was > 100 µM. The GI50 [4] was > 100 µM, the TGI [4] was > 100 µM and the GI50 [5] was 79.6 µM. The TGI [5] was > 100 µM, the GI50 [6] was 5.9 µM and the TGI [6] was > 100 µM. The GI50 [7] was 17.8 µM, the TGI [7] was > 100 µM and the GI50 [8] was > 100 µM. The TGI [8] was > 100 µM, the GI50 [9] was 13.1 µM and the TGI [9] was > 100 µM. For the same molecule, the GI50 [10] was 62.7 µM, the TGI [10] was > 100 µM and the GI50 [11] was > 100 µM. For the same molecule, the TGI [11] was > 100 µM, the GI50 [12] was > 100 µM and the TGI [12] was > 100 µM. For the same molecule, the GI50 [13] was 26 µM, the TGI [13] was > 100 µM and the GI50 [14] was 40.3 µM. For the same molecule, the TGI [14] was > 100 µM, the GI50 [15] was > 100 µM and the TGI [15] was > 100 µM. The GI50 [16] was > 100 µM, the TGI [16] was > 100 µM and the GI50 [17] was 5.76 µM. For the same molecule, the TGI [17] was > 100 µM, the GI50 [18] was > 100 µM and the TGI [18] was > 100 µM. For the same molecule, the GI50 [19] was > 100 µM, the TGI [19] was > 100 µM and the GI50 [20] was > 100 µM. The TGI [20] was > 100 µM, the GI50 [21] was > 100 µM and the TGI [21] was > 100 µM. The GI50 [22] was 6.02 µM, the TGI [22] was > 100 µM and the GI50 [23] was 84 µM. For the same molecule, the TGI [23] was > 100 µM, the GI50 [24] was 9.18 µM and the TGI [24] was > 100 µM. The GI50 [25] was > 100 µM, the TGI [25] was > 100 µM and the GI50 [26] was 2330 nM. For the same molecule, the TGI [26] was > 100 µM, the GI50 [27] was 25 µM and the TGI [27] was > 100 µM. The GI50 [28] was > 100 µM, the TGI [28] was > 100 µM and the GI50 [29] was 26.1 µM. The TGI [29] was > 100 µM, the GI50 [30] was > 100 µM and the TGI [30] was > 100 µM. For the same molecule, the GI50 [31] was 5 µM, the TGI [31] was > 100 µM and the GI50 [32] was > 100 µM. For the same molecule, the TGI [32] was > 100 µM, the GI50 [33] was > 100 µM and the TGI [33] was > 100 µM. The GI50 [34] was 4.56 µM, the TGI [34] was > 100 µM and the GI50 [35] was 4.94 µM. For the same molecule, the TGI [35] was > 100 µM, the GI50 [36] was 4.09 µM and the TGI [36] was > 100 µM. The GI50 [37] was 51.8 µM, the TGI [37] was > 100 µM and the GI50 [38] was 30.2 µM. The TGI [38] was > 100 µM, the GI50 [39] was > 100 µM and the TGI [39] was > 100 µM. For the same molecule, the GI50 [40] was > 100 µM, the TGI [40] was > 100 µM and the GI50 [41] was > 100 µM. For the same molecule, the TGI [41] was > 100 µM, the GI50 [42] was 10.8 µM and the TGI [42] was > 100 µM. The GI50 [43] was > 100 µM, the TGI [43] was > 100 µM and the GI50 [44] was > 100 µM. The TGI [44] was > 100 µM, the GI50 [45] was > 100 µM and the TGI [45] was > 100 µM. For the same molecule, the GI50 [46] was 23.6 µM, the TGI [46] was > 100 µM and the GI50 [47] was 9.22 µM. The TGI [47] was > 100 µM, the GI50 [48] was > 100 µM and the TGI [48] was > 100 µM. For the same molecule, the GI50 [49] was 2470 nM, the TGI [49] was > 100 µM and the GI50 [50] was > 100 µM. The TGI [50] was > 100 µM, the GI50 [51] was 9.94 µM and the TGI [51] was > 100 µM. For the same molecule, the GI50 [52] was > 100 µM, the TGI [52] was > 100 µM and the GI50 [53] was 7.93 µM. The TGI [53] was > 100 µM.
